“Also recorded” adds a separate entry of the source.
Assay: Phase I clinical study, safety and pharmacokinetics
Assay type: in vivo, human
Conditions: between the dose cohorts
Protocol: Oral doses are administered twice daily for twenty-one consecutive days of a four week cycle. […] Response by RECIST is determined after every 2 cycles. Serial blood and plasma samples are collected on the first and final dosing days of Cycle 1 (i.e., Day 1 and Day 21) for pharmacokinetic analysis and for pharmacodynamic biomarker evaluations (specifically, total and phosphorylated forms of p21 and Akt).
Patients in Cohorts 1-3 were dosed twice daily (BID) with oral capsules.

O=C(O)c1ccc2c(c1)nc(Nc1cccc(Cl)c1)c1ccncc12 [Compound K, 5-(3-chlorophenylamino)benzo[c][2,6]naphthyridine-8-carboxylic acid]
linearity / dose proportionality of PK parameters: general linearity; also recorded: dose proportional pharmacokinetics
